Measured values: paper PMC12051786, “Photoisomerization of Azobenzene‐Extended Charybdotoxin for the Optical Control of Kv1.2 Potassium Channel Activity” (Angewandte Chemie (International Ed. in English), 2025)

Protein sequences, listed by entry. Tags and fused reporters are not part of them.
UniProt P63141, whole entry: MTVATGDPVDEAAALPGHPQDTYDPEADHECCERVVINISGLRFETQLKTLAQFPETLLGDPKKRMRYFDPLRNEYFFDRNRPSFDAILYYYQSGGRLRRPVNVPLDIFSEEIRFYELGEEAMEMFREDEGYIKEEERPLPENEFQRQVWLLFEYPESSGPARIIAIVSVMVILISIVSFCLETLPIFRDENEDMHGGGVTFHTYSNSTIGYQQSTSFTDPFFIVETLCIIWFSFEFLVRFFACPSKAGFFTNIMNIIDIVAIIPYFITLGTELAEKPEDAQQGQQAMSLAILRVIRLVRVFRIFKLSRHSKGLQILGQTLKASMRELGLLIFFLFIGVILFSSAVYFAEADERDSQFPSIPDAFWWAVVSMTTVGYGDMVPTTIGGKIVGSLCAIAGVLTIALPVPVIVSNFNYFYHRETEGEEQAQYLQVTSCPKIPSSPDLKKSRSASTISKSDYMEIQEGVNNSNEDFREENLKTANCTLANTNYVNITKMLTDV

Experiments:
[1] = Photo-isomerization kinetics (trans/cis) followed by absorbance under illumination; type: physicochemical; conditions: for Ratio (t1/2 trans → cis / t1/2 cis → trans): fold faster back-switching to trans
mouse Kv1.2 channels = target: T1, mouse Kv1.2 channels (Mus musculus, UniProt P63141); assay: Block of Kv1.2 K+ current, automated patch-clamp (SyncroPatch 384PE); type: cell-based
T1 construct: expressed in transfected cells; host or cells: L929 (mouse fibroblast) cell line stably expressing mKv1.2, kept under G418 selection

## CSCC[C@@H]1NC(=O)[C@@H]2CSSC[C@H](NC(=O)[C@H](CO)NC(=O)[C@@H](NC(=O)[C@H](CC(N)=O)NC(=O)[C@@H](NC(=O)[C@H](Cc3ccccc3)NC(=O)[C@@H]3CCC(=O)N3)[C@@H](C)O)C(C)C)C(=O)N[C@@H]([C@@H](C)O)C(=O)N[C@@H](CCn3cc(CNC(=O)c4ccc(/N=N/c5ccc(C(=O)NCc6cn(CC[C@@H]7NC(=O)[C@H]([C@@H](C)O)NC(=O)[C@@H](NC(=O)[C@H](CO)NC(=O)[C@@H](NC(=O)[C@H](CC(N)=O)NC(=O)[C@@H](NC(=O)[C@H](Cc8ccccc8)NC(=O)[C@@H]8CCC(=O)N8)[C@@H](C)O)C(C)C)CSSC[C@@H]8NC(=O)[C@H](CCCCN)NC(=O)CNC(=O)[C@H](CCCNC(=N)N)NC(=O)[C@H](CO)NC(=O)[C@H]([C@@H](C)O)NC(=O)[C@H](CC(N)=O)NC(=O)[C@H](Cc9c[nH]cn9)NC(=O)[C@H](CC(C)C)NC(=O)[C@H](CCCNC(=N)N)NC(=O)[C@H](CCC(N)=O)NC(=O)[C@@H]9CSSC[C@@H](C(=O)N[C@@H](Cc%10ccc(O)cc%10)C(=O)N[C@@H](CO)C(=O)O)NC(=O)[C@H](CCCNC(=N)N)NC(=O)[C@H](CSSC[C@H](NC(=O)[C@H](CCC(=O)O)NC(=O)[C@H](CCCCN)NC(=O)[C@H](CO)NC7=O)C(=O)N[C@@H](Cc7c[nH]c%10ccccc7%10)C(=O)N[C@@H](CO)C(=O)N[C@@H](C(C)C)C(=O)N9)NC(=O)[C@H](CCCCN)NC(=O)[C@H](CCCCN)NC(=O)[C@H](CC(N)=O)NC(=O)[C@H](CCSC)NC8=O)nn6)cc5)cc4)nn3)C(=O)N[C@@H](CO)C(=O)N[C@@H](CCCCN)C(=O)N[C@@H](CCC(=O)O)C(=O)N[C@H]3CSSC[C@H](NC(=O)[C@H](CCCCN)NC(=O)[C@H](CCCCN)NC(=O)[C@H](CC(N)=O)NC1=O)C(=O)N[C@@H](CCCNC(=N)N)C(=O)N[C@H](C(=O)N[C@@H](Cc1ccc(O)cc1)C(=O)N[C@@H](CO)C(=O)O)CSSC[C@H](NC(=O)[C@H](C(C)C)NC(=O)[C@H](CO)NC(=O)[C@H](Cc1c[nH]c4ccccc14)NC3=O)C(=O)N[C@@H](CCC(N)=O)C(=O)N[C@@H](CCCNC(=N)N)C(=O)N[C@@H](CC(C)C)C(=O)N[C@@H](Cc1c[nH]cn1)C(=O)N[C@@H](CC(N)=O)C(=O)N[C@@H]([C@@H](C)O)C(=O)N[C@@H](CO)C(=O)N[C@@H](CCCNC(=N)N)C(=O)NCC(=O)N[C@@H](CCCCN)C(=O)N2 [ChTx‐Ah^9‐Az1‐Ah^9‐ChTx]
[1]
  Ratio (t1/2 trans → cis / t1/2 cis → trans): 5.0

## CSCC[C@@H]1NC(=O)[C@@H]2CSSC[C@H](NC(=O)[C@H](CO)NC(=O)[C@@H](NC(=O)[C@H](CC(N)=O)NC(=O)[C@@H](NC(=O)[C@H](Cc3ccccc3)NC(=O)[C@@H]3CCC(=O)N3)[C@@H](C)O)C(C)C)C(=O)N[C@@H]([C@@H](C)O)C(=O)N[C@@H]([C@@H](C)O)C(=O)N[C@@H](CO)C(=O)N[C@@H](CCCCN)C(=O)N[C@@H](CCn3cc(CNC(=O)c4ccc(/N=N/c5ccc(C(=O)NCc6cn(CC[C@@H]7NC(=O)[C@H](CCCCN)NC(=O)[C@H](CO)NC(=O)[C@H]([C@@H](C)O)NC(=O)[C@H]([C@@H](C)O)NC(=O)[C@@H](NC(=O)[C@H](CO)NC(=O)[C@@H](NC(=O)[C@H](CC(N)=O)NC(=O)[C@@H](NC(=O)[C@H](Cc8ccccc8)NC(=O)[C@@H]8CCC(=O)N8)[C@@H](C)O)C(C)C)CSSC[C@@H]8NC(=O)[C@H](CCCCN)NC(=O)CNC(=O)[C@H](CCCNC(=N)N)NC(=O)[C@H](CO)NC(=O)[C@H]([C@@H](C)O)NC(=O)[C@H](CC(N)=O)NC(=O)[C@H](Cc9c[nH]cn9)NC(=O)[C@H](CC(C)C)NC(=O)[C@H](CCCNC(=N)N)NC(=O)[C@H](CCC(N)=O)NC(=O)[C@@H]9CSSC[C@@H](C(=O)N[C@@H](Cc%10ccc(O)cc%10)C(=O)N[C@@H](CO)C(=O)O)NC(=O)[C@H](CCCNC(=N)N)NC(=O)[C@H](CSSC[C@H](NC7=O)C(=O)N[C@@H](Cc7c[nH]c%10ccccc7%10)C(=O)N[C@@H](CO)C(=O)N[C@@H](C(C)C)C(=O)N9)NC(=O)[C@H](CCCCN)NC(=O)[C@H](CCCCN)NC(=O)[C@H](CC(N)=O)NC(=O)[C@H](CCSC)NC8=O)nn6)cc5)cc4)nn3)C(=O)N[C@H]3CSSC[C@H](NC(=O)[C@H](CCCCN)NC(=O)[C@H](CCCCN)NC(=O)[C@H](CC(N)=O)NC1=O)C(=O)N[C@@H](CCCNC(=N)N)C(=O)N[C@H](C(=O)N[C@@H](Cc1ccc(O)cc1)C(=O)N[C@@H](CO)C(=O)O)CSSC[C@H](NC(=O)[C@H](C(C)C)NC(=O)[C@H](CO)NC(=O)[C@H](Cc1c[nH]c4ccccc14)NC3=O)C(=O)N[C@@H](CCC(N)=O)C(=O)N[C@@H](CCCNC(=N)N)C(=O)N[C@@H](CC(C)C)C(=O)N[C@@H](Cc1c[nH]cn1)C(=O)N[C@@H](CC(N)=O)C(=O)N[C@@H]([C@@H](C)O)C(=O)N[C@@H](CO)C(=O)N[C@@H](CCCNC(=N)N)C(=O)NCC(=O)N[C@@H](CCCCN)C(=O)N2 [ChTx‐Ah^12‐Az1‐Ah^12‐ChTx]
[1]
  Ratio (t1/2 trans → cis / t1/2 cis → trans): 2.3

## C#CCCC(=O)Nc1ccc(/N=N/c2ccc(NC(=O)CCc3cn(CC[C@@H]4NC(=O)[C@@H]5CSSC[C@@H]6NC(=O)[C@H](CCCCN)NC(=O)[C@H](CCCCN)NC(=O)[C@H](CC(N)=O)NC(=O)[C@H](CCSC)NC(=O)[C@H](CSSC[C@H](NC(=O)[C@H](CO)NC(=O)[C@@H](NC(=O)[C@H](CC(N)=O)NC(=O)[C@@H](NC(=O)[C@H](Cc7ccccc7)NC(=O)[C@@H]7CCC(=O)N7)[C@@H](C)O)C(C)C)C(=O)N[C@@H]([C@@H](C)O)C(=O)N[C@@H]([C@@H](C)O)C(=O)N[C@@H](CO)C(=O)N[C@@H](CCCCN)C(=O)N[C@@H](CCC(=O)O)C(=O)N5)NC(=O)[C@H](CCCCN)NC(=O)CNC(=O)[C@H](CCCNC(=N)N)NC(=O)[C@H](CO)NC(=O)[C@H]([C@@H](C)O)NC(=O)[C@H](CC(N)=O)NC(=O)[C@H](Cc5c[nH]cn5)NC(=O)[C@H](CC(C)C)NC(=O)[C@H](CCCNC(=N)N)NC(=O)[C@H](CCC(N)=O)NC(=O)[C@H](CSSC[C@@H](C(=O)N[C@@H](Cc5ccc(O)cc5)C(=O)N[C@@H](CO)C(=O)O)NC(=O)[C@H](CCCNC(=N)N)NC6=O)NC(=O)[C@H](C(C)C)NC(=O)[C@H](CO)NC4=O)nn3)cc2)cc1 [ChTx‐Ah^14‐Az2]
Mouse Kv1.2 channels; 10 nM dark-adapted peptide, L929-mKv1.2 cells, n = 10
  Time to peak of the increase in Kv1.2 current block on illumination at 385 nm: ≤ 20 s
Mouse Kv1.2 channels; 10 nM peptide, L929-mKv1.2 cells, n = 10
  Time to restoration of initial Kv1.2 current level on back-switching at 490 nm: ≈ 50 s
Mouse Kv1.2 channels; Az2 conjugate, 385 nm, n = 40
  Hill slope nH, cis: 0.6
Mouse Kv1.2 channels; Az2 conjugate, 490 nm, n = 41
  Hill slope nH, trans: 0.9
Mouse Kv1.2 channels; ratio of trans IC50 to cis IC50, Kv1.2
  Gain of potency of cis over trans configuration: 4.3 fold
Mouse Kv1.2 channels; trans configuration at 490 nm, ratio of IC50 values
  Loss of potency versus trans ChTx-Ah14-Az1 (fold less potent): 1.5 fold

## C#CCNC(=O)c1ccc(/N=N/c2ccc(C(=O)NCc3cn(CC[C@@H]4NC(=O)[C@H](CCC(N)=O)NC(=O)[C@@H]5CSSC[C@@H](C(=O)N[C@@H](Cc6ccc(O)cc6)C(=O)N[C@@H](CO)C(=O)O)NC(=O)[C@H](CCCNC(=N)N)NC(=O)[C@@H]6CSSC[C@H](NC(=O)[C@H](CCC(=O)O)NC(=O)[C@H](CCCCN)NC(=O)[C@H](CO)NC(=O)[C@H]([C@@H](C)O)NC(=O)[C@H]([C@@H](C)O)NC(=O)[C@@H](NC(=O)[C@H](CO)NC(=O)[C@@H](NC(=O)[C@H](CC(N)=O)NC(=O)[C@@H](NC(=O)[C@H](Cc7ccccc7)NC(=O)[C@@H]7CCC(=O)N7)[C@@H](C)O)C(C)C)CSSC[C@H](NC(=O)[C@H](CCCCN)NC(=O)CNC(=O)[C@H](CCCNC(=N)N)NC(=O)[C@H](CO)NC(=O)[C@H]([C@@H](C)O)NC(=O)[C@H](CC(N)=O)NC(=O)[C@H](Cc7c[nH]cn7)NC(=O)[C@H](CC(C)C)NC4=O)C(=O)N[C@@H](CCSC)C(=O)N[C@@H](CC(N)=O)C(=O)N[C@@H](CCCCN)C(=O)N[C@@H](CCCCN)C(=O)N6)C(=O)N[C@@H](Cc4c[nH]c6ccccc46)C(=O)N[C@@H](CO)C(=O)N[C@@H](C(C)C)C(=O)N5)nn3)cc2)cc1 [ChTx‐Ah^19‐Az1]
[1]
  Ratio (t1/2 trans → cis / t1/2 cis → trans): 15.3
[1]; half isomerization time, illumination 435 nm, 9.5 mW cm−2, conjugates dissolved in water, absorbance
  t1/2 cis → trans [95% CI]: 2.1 s

## CSCC[C@@H]1NC(=O)[C@@H]2CSSC[C@H](NC(=O)[C@H](CO)NC(=O)[C@@H](NC(=O)[C@H](CC(N)=O)NC(=O)[C@@H](NC(=O)[C@H](Cc3ccccc3)NC(=O)[C@@H]3CCC(=O)N3)[C@@H](C)O)C(C)C)C(=O)N[C@@H]([C@@H](C)O)C(=O)N[C@@H]([C@@H](C)O)C(=O)N[C@@H](CO)C(=O)N[C@@H](CCCCN)C(=O)N[C@@H](CCC(=O)O)C(=O)N[C@H]3CSSC[C@H](NC(=O)[C@H](CCCCN)NC(=O)[C@H](CCCCN)NC(=O)[C@H](CC(N)=O)NC1=O)C(=O)N[C@@H](CCCNC(=N)N)C(=O)N[C@H](C(=O)N[C@@H](Cc1ccc(O)cc1)C(=O)N[C@@H](CO)C(=O)O)CSSC[C@H](NC(=O)[C@H](C(C)C)NC(=O)[C@H](CO)NC(=O)[C@H](Cc1c[nH]c4ccccc14)NC3=O)C(=O)N[C@@H](CCC(N)=O)C(=O)N[C@@H](CCn1cc(CNC(=O)c3ccc(/N=N/c4ccc(C(=O)NCc5cn(CC[C@@H]6NC(=O)[C@H](CCC(N)=O)NC(=O)[C@@H]7CSSC[C@@H](C(=O)N[C@@H](Cc8ccc(O)cc8)C(=O)N[C@@H](CO)C(=O)O)NC(=O)[C@H](CCCNC(=N)N)NC(=O)[C@@H]8CSSC[C@H](NC(=O)[C@H](CCC(=O)O)NC(=O)[C@H](CCCCN)NC(=O)[C@H](CO)NC(=O)[C@H]([C@@H](C)O)NC(=O)[C@H]([C@@H](C)O)NC(=O)[C@@H](NC(=O)[C@H](CO)NC(=O)[C@@H](NC(=O)[C@H](CC(N)=O)NC(=O)[C@@H](NC(=O)[C@H](Cc9ccccc9)NC(=O)[C@@H]9CCC(=O)N9)[C@@H](C)O)C(C)C)CSSC[C@H](NC(=O)[C@H](CCCCN)NC(=O)CNC(=O)[C@H](CCCNC(=N)N)NC(=O)[C@H](CO)NC(=O)[C@H]([C@@H](C)O)NC(=O)[C@H](CC(N)=O)NC(=O)[C@H](Cc9c[nH]cn9)NC(=O)[C@H](CC(C)C)NC6=O)C(=O)N[C@@H](CCSC)C(=O)N[C@@H](CC(N)=O)C(=O)N[C@@H](CCCCN)C(=O)N[C@@H](CCCCN)C(=O)N8)C(=O)N[C@@H](Cc6c[nH]c8ccccc68)C(=O)N[C@@H](CO)C(=O)N[C@@H](C(C)C)C(=O)N7)nn5)cc4)cc3)nn1)C(=O)N[C@@H](CC(C)C)C(=O)N[C@@H](Cc1c[nH]cn1)C(=O)N[C@@H](CC(N)=O)C(=O)N[C@@H]([C@@H](C)O)C(=O)N[C@@H](CO)C(=O)N[C@@H](CCCNC(=N)N)C(=O)NCC(=O)N[C@@H](CCCCN)C(=O)N2 [ChTx‐Ah^19‐Az1‐Ah^19‐ChTx]
[1]
  Ratio (t1/2 trans → cis / t1/2 cis → trans): 4.3
